Reference: PubChem BioAssay AID493027 (The Scripps Research Institute Molecular Screening Center, 2011)
This is a selection; strong and weak results do not stand in their true shares. Calls of active or inactive are those of the source.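 The calls were made as follows: active = inhibition above the screen-wide mean inhibition plus 3 SD (cut at about 44% in these data); inactive = the rest.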

Amino acid sequences for entries named in this document (tags omitted). A change or cut given only in a name is not applied to a line headed by its entry.
UniProt O60240: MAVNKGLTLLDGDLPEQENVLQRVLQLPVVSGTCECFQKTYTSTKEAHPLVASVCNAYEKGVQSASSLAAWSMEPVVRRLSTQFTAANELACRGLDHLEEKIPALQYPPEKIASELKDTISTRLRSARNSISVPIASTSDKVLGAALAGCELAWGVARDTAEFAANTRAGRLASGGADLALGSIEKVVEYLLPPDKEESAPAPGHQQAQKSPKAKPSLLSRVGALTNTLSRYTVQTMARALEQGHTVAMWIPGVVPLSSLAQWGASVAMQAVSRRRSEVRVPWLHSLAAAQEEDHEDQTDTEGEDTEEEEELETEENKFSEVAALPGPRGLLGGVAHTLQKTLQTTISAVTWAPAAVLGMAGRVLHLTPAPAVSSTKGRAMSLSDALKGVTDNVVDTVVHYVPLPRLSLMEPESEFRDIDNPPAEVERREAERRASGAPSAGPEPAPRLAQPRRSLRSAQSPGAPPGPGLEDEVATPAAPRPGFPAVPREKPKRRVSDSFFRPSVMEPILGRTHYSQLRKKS
UniProt Q8WTS1: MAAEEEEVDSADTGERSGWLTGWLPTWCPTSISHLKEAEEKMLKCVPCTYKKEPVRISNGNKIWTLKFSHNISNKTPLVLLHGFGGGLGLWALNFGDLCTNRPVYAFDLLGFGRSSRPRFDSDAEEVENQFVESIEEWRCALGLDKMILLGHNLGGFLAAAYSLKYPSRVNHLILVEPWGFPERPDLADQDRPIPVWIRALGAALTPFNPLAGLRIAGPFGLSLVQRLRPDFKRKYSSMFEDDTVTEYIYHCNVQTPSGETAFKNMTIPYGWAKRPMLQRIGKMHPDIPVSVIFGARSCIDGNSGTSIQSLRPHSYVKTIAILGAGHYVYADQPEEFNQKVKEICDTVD

target: Perilipin-1 (Homo sapiens) + 1-acylglycerol-3-phosphate O-acyltransferase ABHD5 (Homo sapiens) (UniProt O60240+Q8WTS1); test: ABHD5-PLIN1 interaction inhibitors, pilot screen, cell lysate, split luciferase complementation, luminescence, NIH validation set (AID 493027);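 also: 0% = DMSO wells with the 100% control not disclosed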; settings: split G. princeps luciferase complementation, 4 h, at 7.9 µM, stronger effect = higher value

SMILES	inhibition
CN(C(=O)Cc1ccc(Cl)c(Cl)c1)[C@@H]1CCCC[C@H]1N1CCCC1	inactive: -11.6%
